This note sets out measurements from ChEMBL document CHEMBL3861996, “Arylsulfonamide derivatives of (aryloxy)ethyl pyrrolidines and piperidines as α1-adrenergic receptor antagonist with uro-selective activity” (Bioorg Med Chem, 2016).

This assay is filed under the species Rattus norvegicus. The experiment in a line: Selectivity ratio of Ki for alpha2 adrenergic receptor in rat brain cerebral cortex membranes to Ki for alpha1 adrenergic receptor in rat brain cerebral cortex membranes. Type of assay: cell membranes. In a few lines:
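Rat cerebral cortex homogenized in ice-cold 50 mM Tris–HCl (pH 7.6), spun at 20,000 g for 20 min (0–4 °C), resuspended and spun again. Membranes incubated with 0.2 nM [3H]-prazosin (α1) or 2 nM [3H]-clonidine (α2) and seven to eight compound concentrations (10^-11 to 10^-4 M). Non-specific binding defined with 10 µM phentolamine (prazosin) or 10 µM clonidine (clonidine). Ended by GF/C filtration, counted by liquid scintillation. Run in duplicate; Ki from two independent experiments.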
As to `COc1ccccc1OCCN1CCC(CNS(=O)(=O)c2cncc3ccccc23)CC1`, the Ratio Ki worked out at 8. For `COc1ccccc1OCCN1CCC(CNS(=O)(=O)c2cc(Cl)ccc2F)CC1`, the Ratio Ki amounted to 24. To `COc1ccc(S(=O)(=O)NC2CCN(CCOc3ccccc3OC)CC2)cc1OC` belongs 22; to `COc1ccc(S(=O)(=O)NCC2CCN(CCOc3ccccc3OC)CC2)cc1OC`, 8. The figure for `CC(C)Oc1ccccc1OCCN1CCC(CNS(=O)(=O)c2cccc(Cl)c2F)CC1` is 17. The figure for `COc1ccccc1OCCN1CCC(CNS(=O)(=O)c2cccc(Cl)c2F)CC1` is 14; for `CC(C)Oc1ccccc1OCCN1CCC(CNS(=O)(=O)c2cccc3cccnc23)CC1` it is 10.

As for `COc1ccccc1OCCN1CCC(CNS(=O)(=O)c2cccc(Cl)c2)CC1`, the Ratio Ki amounted to 10. With `COc1ccccc1OCCN1CCC(NS(=O)(=O)c2cncc3ccccc23)CC1`, the Ratio Ki is 6.
